{"source": "paper PMC11404765", "about": "(Journal of Clinical Oncology, 2024)", "key": {"[1]": {"tested_on": "BTC harboring FGFR2 fusions or rearrangements", "settings": "phase II trials; cited from earlier work"}, "HER2-positive BTC [2]": {"tested_on": "HER2-positive BTC", "settings": "global phase IIb trial; cited from earlier work"}, "HER2-positive BTC [3]": {"tested_on": "HER2-positive BTC", "assay": "HERB phase II trial: confirmed tumor response and survival in HER2-positive BTC", "format": "in vivo, human"}, "HER2-low BTC": {"tested_on": "HER2-low BTC", "assay": "HERB phase II trial: confirmed tumor response and survival in HER2-low BTC", "format": "in vivo, human", "settings": "HER2-low (n = 8)"}, "HER2-expressing BTC": {"tested_on": "HER2-expressing BTC", "assay": "HERB phase II trial: confirmed tumor response in the full analysis set", "format": "in vivo, human", "settings": "FAS (n = 30)"}, "[4]": {"assay": "HERB phase II trial: safety in the safety analysis set", "format": "in vivo, human"}, "[5]": {"assay": "Incidence of human antihuman antibody", "format": "in vivo", "settings": "samples from seven patients"}}}
{"compound": "C=CC(=O)N1CC[C@H](n2nc(C#Cc3cc(OC)cc(OC)c3)c3c(N)ncnc32)C1", "note": "[futibatinib]", "values": [{"measurement": "ORR", "setting": "[1]", "result": 41.7, "unit": "%"}]}
{"compound": "Zanidatamab", "values": [{"measurement": "ORR", "setting": "HER2-positive BTC [2]", "result": 41.3, "unit": "%"}]}
{"compound": "Trastuzumab deruxtecan [T-DXd]", "values": [{"measurement": "Best response CR, LIR", "setting": "HER2-positive BTC [3]; HER2-positive (n = 22)", "result": "0 No. (%)"}, {"measurement": "Best response NE, LIR", "setting": "HER2-positive BTC [3]; HER2-positive (n = 22)", "result": "0 No. (%)"}, {"measurement": "Best response PR, BICR", "setting": "HER2-positive BTC [3]; HER2-positive (n = 22)", "result": "6 (27.3) No. (%)"}, {"measurement": "Best response PR, LIR", "setting": "HER2-positive BTC [3]; HER2-positive (n = 22)", "result": "8 (36.4) No. (%)"}, {"measurement": "Best response SD, BICR", "setting": "HER2-positive BTC [3]; HER2-positive (n = 22)", "result": "10 (45.5) No. (%)"}, {"measurement": "Best response SD, LIR", "setting": "HER2-positive BTC [3]; HER2-positive (n = 22)", "result": "11 (50.0) No. (%)"}, {"measurement": "Confirmed ORR by LIR, % (95% CI)", "setting": "HER2-positive BTC [3]; HER2-positive (n = 22)", "result": "36.4 (17.2 to 59.3) %"}, {"measurement": "DCR by BICR, % (95% CI)", "setting": "HER2-positive BTC [3]; HER2-positive (n = 22)", "result": "81.8 (59.7 to 94.8) %"}, {"measurement": "DCR by LIR, % (95% CI)", "setting": "HER2-positive BTC [3]; HER2-positive (n = 22)", "result": "86.4 (65.1 to 97.1) %"}, {"measurement": "Confirmed ORR by BICR, % (95% CI)", "setting": "HER2-positive BTC [3]; HER2-positive subgroup: ECOG PS 1", "result": "28.6 (3.7 to 71.0) %"}, {"measurement": "Confirmed ORR by BICR, % (95% CI)", "setting": "HER2-positive BTC [3]; HER2-positive subgroup: IHC2+", "result": "33.3 (9.9 to 65.1) %"}, {"measurement": "Confirmed ORR by BICR, % (95% CI)", "setting": "HER2-positive BTC [3]; HER2-positive subgroup: age <65 years", "result": "33.3 (7.5 to 70.1) %"}, {"measurement": "Confirmed ORR by BICR, % (95% CI)", "setting": "HER2-positive BTC [3]; HER2-positive subgroup: age ≥65 years", "result": "38.5 (13.9 to 68.4) %"}, {"measurement": "Confirmed ORR by BICR, % (95% CI)", "setting": "HER2-positive BTC [3]; HER2-positive subgroup: ampulla of Vater cancer", "result": "50.0 (1.3 to 98.7) %"}, {"measurement": "Confirmed ORR by BICR, % (95% CI)", "setting": "HER2-positive BTC [3]; HER2-positive subgroup: extrahepatic cholangiocarcinoma", "result": "33.3 (4.3 to 77.7) %"}, {"measurement": "Confirmed ORR by BICR, % (95% CI)", "setting": "HER2-positive BTC [3]; HER2-positive subgroup: female", "result": "55.6 (21.2 to 86.3) %"}, {"measurement": "Confirmed ORR by BICR, % (95% CI)", "setting": "HER2-positive BTC [3]; HER2-positive subgroup: gallbladder cancer", "result": "36.4 (10.9 to 69.2) %"}, {"measurement": "Confirmed ORR by BICR, % (95% CI)", "setting": "HER2-positive BTC [3]; HER2-positive subgroup: intrahepatic cholangiocarcinoma", "result": "33.3 (0.8 to 90.6) %"}, {"measurement": "Confirmed ORR by BICR, % (95% CI)", "setting": "HER2-positive BTC [3]; HER2-positive subgroup: locally advanced", "result": "50.0 (1.3 to 98.7) %"}, {"measurement": "Confirmed ORR by BICR, % (95% CI)", "setting": "HER2-positive BTC [3]; HER2-positive subgroup: male", "result": "23.1 (5.0 to 53.8) %"}, {"measurement": "Confirmed ORR by BICR, % (95% CI)", "setting": "HER2-positive BTC [3]; HER2-positive subgroup: metastatic", "result": "35.0 (15.4 to 59.2) %"}, {"measurement": "Confirmed ORR by BICR, % (95% CI)", "setting": "HER2-positive BTC [3]; HER2-positive subgroup: recurrent", "result": "33.3 (7.5 to 70.1) %"}, {"measurement": "Confirmed ORR by BICR, % (95% CI)", "setting": "HER2-positive BTC [3]; HER2-positive subgroup: unresectable", "result": "38.5 (13.9 to 68.4) %"}, {"measurement": "Best response CR, BICR", "setting": "HER2-low BTC", "result": "0 No. (%)"}, {"measurement": "Best response CR, LIR", "setting": "HER2-low BTC", "result": "0 No. (%)"}, {"measurement": "Best response NE, LIR", "setting": "HER2-low BTC", "result": "0 No. (%)"}, {"measurement": "Best response SD, BICR", "setting": "HER2-low BTC", "result": "5 (62.5) No. (%)"}, {"measurement": "Best response SD, LIR", "setting": "HER2-low BTC", "result": "4 (50.0) No. (%)"}, {"measurement": "Confirmed ORR by LIR, % (95% CI)", "setting": "HER2-low BTC", "result": "12.5 (0.3 to 52.7) %"}, {"measurement": "DCR by BICR, % (95% CI)", "setting": "HER2-low BTC", "result": "75.0 (34.9 to 96.8) %"}, {"measurement": "DCR by LIR, % (95% CI)", "setting": "HER2-low BTC", "result": "62.5 (24.5 to 91.5) %"}, {"measurement": "Confirmed ORR by BICR", "setting": "HER2-low BTC; FAS, 5.4 mg/kg every 3 weeks", "result": 12.5, "unit": "%"}, {"measurement": "Best response CR, LIR", "setting": "HER2-expressing BTC", "result": "0 No. (%)"}, {"measurement": "Best response NE, LIR", "setting": "HER2-expressing BTC", "result": "0 No. (%)"}, {"measurement": "Best response PD, BICR", "setting": "HER2-expressing BTC", "result": "4 (13.3) No. (%)"}, {"measurement": "Best response PD, LIR", "setting": "HER2-expressing BTC", "result": "6 (20.0) No. (%)"}, {"measurement": "Best response PR, BICR", "setting": "HER2-expressing BTC", "result": "7 (23.3) No. (%)"}, {"measurement": "Confirmed ORR by BICR", "setting": "HER2-expressing BTC", "result": 30.0, "unit": "%"}, {"measurement": "Confirmed ORR by LIR, % (95% CI)", "setting": "HER2-expressing BTC", "result": "30.0 (14.7 to 49.4) %"}, {"measurement": "Treatment-related ≥grade 3 adverse events, patients", "setting": "[4]; SAS (26/32)", "result": 81.3, "unit": "%"}, {"measurement": "Dose reduction because of treatment-related adverse events", "setting": "[4]; SAS (n = 32)", "result": 18.8, "unit": "%"}, {"measurement": "Reason for discontinuation: adverse event", "setting": "[4]; SAS (n = 32)", "result": "7 (21.9) No. (%)"}, {"measurement": "Serious TRAEs", "setting": "[4]; SAS (n = 32)", "result": "6 (18.8) No. (%)"}, {"measurement": "TRAEs leading to treatment discontinuation", "setting": "[4]; SAS (n = 32)", "result": "8 (25.0) No. (%)"}, {"measurement": "TRAEs leading to treatment interruption", "setting": "[4]; SAS (n = 32)", "result": "12 (37.5) No. (%)"}, {"measurement": "≥grade 3 treatment-related anemia", "setting": "[4]; SAS (n = 32)", "result": 53.1, "unit": "%"}, {"measurement": "≥grade 3 treatment-related decreased lymphocyte count", "setting": "[4]; SAS (n = 32)", "result": 21.9, "unit": "%"}, {"measurement": "Any TRAEs", "setting": "[4]; SAS (n = 32), 5.4 mg/kg every 3 weeks", "result": "32 (100) No. (%)"}, {"measurement": "ILD or pneumonitis grade 4", "setting": "[4]; among patients with ILD or pneumonitis (n = 8)", "result": "0 No. (%)"}, {"measurement": "HAHA status", "setting": "[5]", "result": "HAHA-negative"}]}
